Data from US7413866B2, “Compositions and methods for detecting and treating diseases and conditions related to chemokine receptors” (ChemoCentryx, Inc., priority 2001, dated 2008).

Chains of the proteins cited; added tags and fusions are not shown.
UniProt P61073, whole entry: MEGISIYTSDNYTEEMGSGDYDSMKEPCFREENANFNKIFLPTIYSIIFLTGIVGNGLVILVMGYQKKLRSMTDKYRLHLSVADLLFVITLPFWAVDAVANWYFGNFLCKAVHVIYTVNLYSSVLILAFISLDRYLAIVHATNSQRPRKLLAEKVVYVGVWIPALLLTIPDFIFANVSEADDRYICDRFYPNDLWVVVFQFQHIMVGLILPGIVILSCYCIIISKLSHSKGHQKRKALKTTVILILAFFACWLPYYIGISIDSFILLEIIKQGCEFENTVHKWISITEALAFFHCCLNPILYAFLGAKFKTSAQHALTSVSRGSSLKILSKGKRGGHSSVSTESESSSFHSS
UniProt P25106, whole entry: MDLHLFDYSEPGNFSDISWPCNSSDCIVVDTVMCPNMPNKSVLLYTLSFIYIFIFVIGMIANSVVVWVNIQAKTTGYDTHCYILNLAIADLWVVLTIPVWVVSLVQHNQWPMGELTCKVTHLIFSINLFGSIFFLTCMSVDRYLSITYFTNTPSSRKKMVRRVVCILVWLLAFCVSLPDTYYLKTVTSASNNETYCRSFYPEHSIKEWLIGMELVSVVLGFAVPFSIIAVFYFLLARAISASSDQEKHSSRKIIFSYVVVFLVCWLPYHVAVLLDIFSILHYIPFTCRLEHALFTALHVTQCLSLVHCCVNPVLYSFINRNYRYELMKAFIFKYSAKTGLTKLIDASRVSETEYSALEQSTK

What was measured:
CXCR4 on CEM-NKr cells = CXCR4 on CEM-NKr cells (Homo sapiens, UniProt P61073); test: 125I SDF-1α competition binding on CEM-NKr cells
CXCR4 on MCF-7 cells = CXCR4 on MCF-7 cells (Homo sapiens, UniProt P25106); test: 125I SDF-1α competition binding on MCF-7 cells

| IC50 (CXCR4 on CEM-NKr cells; read-out: IC50, inhibition of 125I SDF-1α binding to CEM-NKr, 3 hr at 4° C.) | competition with / inhibition of 125I SDF-1α binding on MCF-7 (in words) (CXCR4 on MCF-7 cells) | competition with / inhibition of 125I SDF-1α binding on CEM-NKr (in words) (CXCR4 on CEM-NKr cells) | IC50 (CXCR4 on MCF-7 cells; read-out: IC50, competition with 125I SDF-1α for binding to MCF-7, 3 hr at 4° C.) | SMILES |
| --- | --- | --- | --- | --- |
| 0.106 µM | does not inhibit | – | – | CN(C)CCCN(CCCN(C)C)CC1CC2C=CC1C2 (stereo not shown) |
| – | – | does not inhibit | 0.046 µM | c1ccc(COc2ccc3[nH]cc(CC[n+]4c(-c5ccccc5)cc(-c5ccccc5)cc4-c4ccccc4)c3c2)cc1 |
